Laboratory results: patent publication US6520981B1, “Significance of dosimetry in photodynamic therapy of injured arteries” (The General Hospital Corporation, priority 1999, dated 2003)
Where two headings read alike, the source gives them in different places.

CN(C)c1ccc2nc3ccc(=[N+](C)C)cc-3sc2c1 [MB, methylene blue]
Distribution of MB in the carotid artery wall (fluorescence) (5 minutes after local delivery of 250 μg/ml MB, excitation 476 nm, emission 620-630 nm): strong homogenous fluorescent signal was detected in the entire thickness of the arterial wall
Distribution of MB in the carotid artery wall (fluorescence) (rat, in vivo): high-fluorescence signal throughout the vessel wall
